Assay results from article PMC10413907 (Journal of Evidence-based Integrative Medicine, 2023).

The chains behind the UniProt entries cited, without tags or fusion partners.
UniProt P33261, whole entry: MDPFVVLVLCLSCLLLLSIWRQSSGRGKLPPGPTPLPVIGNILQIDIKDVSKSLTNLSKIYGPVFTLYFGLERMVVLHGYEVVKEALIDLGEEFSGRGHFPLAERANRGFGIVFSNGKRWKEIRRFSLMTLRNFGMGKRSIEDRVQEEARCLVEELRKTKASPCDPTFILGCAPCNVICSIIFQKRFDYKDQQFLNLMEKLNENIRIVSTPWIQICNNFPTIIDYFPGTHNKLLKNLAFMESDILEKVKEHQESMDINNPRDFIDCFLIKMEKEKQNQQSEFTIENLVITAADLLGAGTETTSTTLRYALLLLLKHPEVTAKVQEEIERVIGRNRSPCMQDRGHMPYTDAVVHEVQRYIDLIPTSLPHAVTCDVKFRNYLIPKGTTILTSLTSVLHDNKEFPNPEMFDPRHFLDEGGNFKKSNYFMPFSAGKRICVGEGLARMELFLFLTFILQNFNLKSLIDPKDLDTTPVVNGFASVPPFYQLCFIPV

Biological target: recombinant human CYP2C19 (Homo sapiens, UniProt P33261)
Assay: P450-Glo bioluminescent CYP450 inhibition assay
Type: in vitro ADME
Details: CYP2C19 inhibitory potency class, class by IC50

Compound: Cc1c(C)c2c(c(C)c1O)CCC(C)(COc1ccc(CC3SC(=O)NC3=O)cc1)O2 (stereo not shown) [Troglitazone, troglitazone, reference compound]
- IC50: < 10 µM
